pIC50: −log10 of the molar value.
Molecular target: p97 ATPase WT (Homo sapiens (Human), UniProt P55072)
Assay: p97 ADP-Glo assay
Assay type: biochemical
Details: Table 3; read-out: ADPGlo IC50
Text: ADP-Glo™ (Promega Corp.) is a bioluminescent, homogeneous assay that measures ADP formed from a biochemical reactions. Because of its high sensitivity, the assay is suitable for monitoring enzyme activities at very early substrate conversions requiring very low amount of enzymes.
The ADP-Glo assay can be conducted as described in Chou, T.-F.; Bulfer, S. L.; Weihl, C.

Chains of the proteins cited; added tags and fusions are not shown.
UniProt P55072, whole entry: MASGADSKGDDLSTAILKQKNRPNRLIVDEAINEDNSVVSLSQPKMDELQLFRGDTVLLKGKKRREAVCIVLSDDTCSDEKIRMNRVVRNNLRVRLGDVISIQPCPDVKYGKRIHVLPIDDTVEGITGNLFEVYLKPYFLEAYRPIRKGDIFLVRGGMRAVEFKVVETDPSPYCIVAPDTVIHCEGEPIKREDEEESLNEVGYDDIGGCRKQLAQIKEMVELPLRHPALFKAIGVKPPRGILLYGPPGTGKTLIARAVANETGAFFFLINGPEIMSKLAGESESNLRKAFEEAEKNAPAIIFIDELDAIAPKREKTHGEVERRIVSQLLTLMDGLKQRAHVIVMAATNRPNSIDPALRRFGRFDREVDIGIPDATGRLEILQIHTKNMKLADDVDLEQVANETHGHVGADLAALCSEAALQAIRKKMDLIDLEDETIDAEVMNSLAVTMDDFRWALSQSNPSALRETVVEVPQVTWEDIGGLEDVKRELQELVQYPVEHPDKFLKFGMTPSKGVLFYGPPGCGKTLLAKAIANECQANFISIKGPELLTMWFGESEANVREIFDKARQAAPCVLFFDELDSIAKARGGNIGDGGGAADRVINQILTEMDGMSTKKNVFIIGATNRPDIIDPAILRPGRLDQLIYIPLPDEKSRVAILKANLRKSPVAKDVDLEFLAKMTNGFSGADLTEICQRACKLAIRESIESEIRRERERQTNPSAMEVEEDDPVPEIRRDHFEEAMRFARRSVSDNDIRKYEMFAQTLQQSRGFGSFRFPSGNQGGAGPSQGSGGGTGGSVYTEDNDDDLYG

pIC50: 7.00
Structure (SMILES): CC(C)N1CCN(CCNC2CCN(c3cccc(-c4cc5ccccc5[nH]4)c3)CC2)CC1

Reference: patent publication US11247985B2, “Phenyl indole allosteric inhibitors of P97 ATPase” (University of Pittsburgh—Of the Commonwealth System of …, priority 2015, dated 2022)
